Here are results for three molecules from patent publication US12558356B2, “Immunophilin binding agents and uses thereof” (The Regents of the University of California, priority 2019, dated 2026).

Amino acid sequences for entries named in this document (tags omitted).
UniProt P62942, whole entry: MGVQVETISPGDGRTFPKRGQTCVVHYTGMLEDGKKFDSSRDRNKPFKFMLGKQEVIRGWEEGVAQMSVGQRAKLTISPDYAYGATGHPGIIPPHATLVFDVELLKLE

SMILES strings stand for the structures.

The target in one experiment is FKBP12 (Homo sapiens (Human), UniProt P62942). Put plainly: FKBP12 binding assay (fluorescence polarization). A general note: In fluorescence polarisation assays a small probe gives low polarisation when free and higher when bound to something large.

Consider `CO[C@H]1C/C(C)=C/[C@@H](CCCC(=O)N2CCN(c3cc(Nc4ncc(C(=O)Nc5c(C)cccc5Cl)s4)nc(C)n3)CC2)C(=O)C[C@H](O)[C@@H](C)[C@@H](/C(C)=C/[C@@H]2CC[C@@H](O)[C@H](OC)C2)OC(=O)[C@@H]2CCCCN2C(=O)C(=O)[C@]2(O)O[C@H]([C@@H](OC)C1)[C@@H](OC)C[C@H]2C`, for which the “dependence of activity on FKBP12” value in the experiment with Src, Csk and DDR2 is reported as “dependent on FKBP12”. A word on the Kd: it is the free concentration of one partner at which half of the binding sites on the other are occupied at equilibrium, for simple one-to-one binding. On FKBP12, `CCC(C)(C)C(=O)C(=O)N1CCCC[C@H]1C(=O)O[C@H](CCc1ccc(OC)c(OC)c1)c1cccc(N)c1` [SLF, reference compound] registered a Kd of 23 nM. Still for that read-out and setting: then `CCC(C)(C)C(=O)C(=O)N1CCCC[C@H]1C(=O)O[C@H](CCc1ccc(OC)c(OC)c1)c1cccc(NC(=O)[C@H](C)N)c1` [ZZY01-059], with 13.6 nM.
